Measured values reported in patent US12281335B2, “Methods and compositions for delivery of viral vectors across the blood-brain barrier” (priority 2017, dated 2025).

Test system: human transferrin binding to AAV8 virions
Experiment: AAV8 competitive binding assay
Conditions: pre-incubation with AAV8, then human transferrin; pull down with transferrin antibody, qPCR
Method: AAV8 competitive binding assay. For THR competitive binding analysis, 10 ul of Protein G resin (Thermo, USA) per system was incubated with 1 ug of human transferrin antibody or goat IgG antibody control at 4° C. overnight. The next day, 1E+10 vg AAV8/luc were firstly incubated with human serum albumin (HSA) of physiological concentration, THR or PEPXT-1 control peptide at different dilutions or PBS on ice for 2 h, and then added the human transferrin at a 1:100 dilution of physiological concentration into the complex and incubated on ice for another 2 h. After that, the mixture was added to the complex of protein G resin and transferrin antibody and incubated at 4° C. overnight. Finally, the complex was stringently washed three times with cold DPBS. DNA from the complex was extracted and applied for qPCR to determine AAV genome copy number per cell using luc specific primers.
THR competed with the human transferrin binding to AAV8 virions. […] To investigate whether THR also binds to the same location of AAV8 virions as human serum proteins, we performed a competitive assay. […] The transferrin antibody was used to pull down transferrin bound AAV8 virions and AAV8 gene copy number was measured by qPCR. […]

HSA: human serum albumin was tested, and the “inhibition of transferrin binding to AAV8” value was “blocked transferrin binding to AAV8”.
